From PubChem BioAssay AID440 (NMMLSC, 2006) come the findings set out here.

Protein sequences, listed by entry. Tags and fused reporters are not part of them.
UniProt P21462, whole entry: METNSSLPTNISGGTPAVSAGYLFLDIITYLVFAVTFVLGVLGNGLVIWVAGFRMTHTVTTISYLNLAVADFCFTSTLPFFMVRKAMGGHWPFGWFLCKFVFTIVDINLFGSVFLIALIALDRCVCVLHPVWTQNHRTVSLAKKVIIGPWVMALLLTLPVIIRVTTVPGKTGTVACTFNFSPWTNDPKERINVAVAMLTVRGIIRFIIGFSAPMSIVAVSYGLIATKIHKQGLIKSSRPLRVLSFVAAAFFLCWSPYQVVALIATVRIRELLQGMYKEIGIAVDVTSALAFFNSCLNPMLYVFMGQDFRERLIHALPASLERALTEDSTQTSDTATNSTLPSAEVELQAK

The list shows a part of the results, in another mix than the full data. Calls of active or inactive are those of the source. No stated cut-off is given here; in the data, active means inhibition above about 30%; inconclusive means no clear call, values can overlap the other calls; inactive means below that.

This assay addresses fMet-Leu-Phe receptor (Homo sapiens) (UniProt P21462). The assay can be described thus: small molecules displacing FPR fluorescent ligand – cell-based, FPRL1 counter-screen, flow cytometry, primary screen (AID 440).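 Further: 0% = buffer wells and 100% = receptor blocker peptide wells.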 The settings on record: FPR-expressing cells, fluorescent ligand binding, hits give high values, concentration not given here. A general note: A counterscreen serves to expose hits that act by an unwanted route or on another target.
As for `CP(=O)(Nc1ccc2c(c1)OCCO2)Oc1ccccc1` (centres undefined), the inhibition (in general, the drop in the measured response relative to a control, in per cent) was inactive: -3.4%.

On to `Cc1ccccc1NP(C)(=O)Nc1ccccc1C`, for which the inhibition was inactive: -5.1%.

For `O=P(Nc1nccs1)(c1ccccc1)c1ccccc1`, the inhibition was inactive: -2.7%.

For the molecule `CN(C)CCOC(=O)C(O)(c1ccccc1)C1CCCCC1` (centres undefined), the inhibition was active: 46.3%.

`CCc1nc2c(n1)c1c(non1O)c1c2no[n+]1[O-]`: the inhibition is inactive: 3%.

Regarding `CP(=O)(Nc1ccccn1)Oc1ccccc1` (centres undefined), the inhibition is inactive: 0.3%.

Regarding `Cc1nc2ccc3ccccc3c2o1.O=[N+]([O-])c1cc([N+](=O)[O-])c(O)c([N+](=O)[O-])c1`, the inhibition was inactive: 12.9%.

As for `COP1(=S)c2c(C)nn(CCC#N)c2N=C(c2ccc(F)cc2)N1C` (centres undefined), the inhibition was inactive: -3.6%.

`O=C(COc1ccccc1)OC1CN2CCC1CC2` (centres undefined): the inhibition was inactive: -1.3%.

With `CP(=S)(Nn1cnnc1)Oc1ccccc1` (centres undefined), the inhibition is inactive: -2.4%.

As for `Cc1nn(-c2ccccc2)c2c1P(=O)(N1CCOCC1)N(C)C(c1ccccc1)=N2` (centres undefined), the inhibition was inactive: -2.5%.

For the molecule `Clc1n[nH]nc1-c1nn[nH][15n]1`, the inhibition is inactive: 6%.

Regarding `Cc1ccc(C)c(NP(C)(=O)Oc2ccccc2)c1` (centres undefined), the inhibition is inactive: 0.6%.

Turning to `CCOP1(=S)c2c(C)nn(CCC#N)c2N=C(c2ccccc2F)N1C` (centres undefined), the inhibition was inactive: -1.8%.
